The list shows a part of the results, in another mix than the full data. Activity calls are given as the source filed them.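 The calls were made as follows: active = inhibition above the screen-wide mean inhibition plus 3 SD (cut at about 15% in these data); inactive = the rest.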
target: Ephrin type-B receptor 4 (Homo sapiens) (UniProt P54760); test: EphB4-ephrin-B2 interaction antagonists, primary screen, biochemical, TNYL-RAW peptide probe, fluorescence polarization (AID 720); conditions: EphB4 LBD / TNYL-RAW-Alexa532 peptide, at 7 µM, hits give high values;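 also: 0% = DMSO wells and 100% = excess unlabeled TNYL-RAW peptide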

Amino acid sequences for entries named in this document (tags omitted). A change or cut given only in a name is not applied to a line headed by its entry.
UniProt P54760: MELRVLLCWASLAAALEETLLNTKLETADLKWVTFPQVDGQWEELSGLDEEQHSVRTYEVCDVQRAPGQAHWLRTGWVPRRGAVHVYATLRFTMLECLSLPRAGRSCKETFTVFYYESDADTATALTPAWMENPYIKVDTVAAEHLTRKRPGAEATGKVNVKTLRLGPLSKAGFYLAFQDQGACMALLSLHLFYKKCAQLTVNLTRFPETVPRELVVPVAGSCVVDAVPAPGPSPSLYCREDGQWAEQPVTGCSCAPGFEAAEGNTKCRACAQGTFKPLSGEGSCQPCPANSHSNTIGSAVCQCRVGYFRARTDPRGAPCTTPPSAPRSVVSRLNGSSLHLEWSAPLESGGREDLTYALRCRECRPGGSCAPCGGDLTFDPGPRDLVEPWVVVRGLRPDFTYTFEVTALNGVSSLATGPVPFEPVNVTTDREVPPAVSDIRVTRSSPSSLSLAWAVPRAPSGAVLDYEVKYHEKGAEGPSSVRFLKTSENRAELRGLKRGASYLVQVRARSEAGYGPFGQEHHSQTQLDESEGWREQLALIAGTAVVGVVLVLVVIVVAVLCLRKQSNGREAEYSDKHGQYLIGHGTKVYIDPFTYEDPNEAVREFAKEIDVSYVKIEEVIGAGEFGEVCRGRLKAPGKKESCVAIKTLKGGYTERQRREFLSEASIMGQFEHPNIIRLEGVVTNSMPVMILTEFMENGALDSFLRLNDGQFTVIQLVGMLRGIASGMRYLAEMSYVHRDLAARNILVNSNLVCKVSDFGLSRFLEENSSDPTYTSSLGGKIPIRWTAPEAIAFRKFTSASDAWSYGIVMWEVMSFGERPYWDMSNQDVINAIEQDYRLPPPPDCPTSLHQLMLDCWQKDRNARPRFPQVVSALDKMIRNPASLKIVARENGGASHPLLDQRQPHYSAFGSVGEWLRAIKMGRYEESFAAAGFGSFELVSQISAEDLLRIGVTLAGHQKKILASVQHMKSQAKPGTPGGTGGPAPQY

| SMILES | inhibition |
| --- | --- |
| O=C(OC1CN2CCC1CC2)c1cccc(Cl)c1 (stereo not drawn) | inactive: -0.69% |
| c1nnnn1CCn1cnnn1 | inactive: -1.52% |
| O=P(Nc1nccs1)(c1ccccc1)c1ccccc1 | inactive: -6.94% |
| O=P1(Nc2nc3ccc(Cl)cc3s2)COc2ccccc2O1 (stereo not drawn) | inactive: -2.39% |
| COC(=O)c1cc2c(s1)N=C(c1ccccc1)N(C)P2(=O)N1CCOCC1 (stereo not drawn) | inactive: -2.25% |
| CCC(=O)N1C2C3N(C(=O)CC)C1C1N(C(=O)CC)C(C(N1C(=O)CC)N3C(=O)CC)N2C(=O)CC | inactive: -2.56% |
| CCOC(=O)NC(Sc1ccccc1)C(Cl)(Cl)Cl (stereo not drawn) | inactive: 7.08% |
| CCOP(=O)(Nc1ccccc1)OCC | inactive: 1.53% |
| CC(C)CC(=O)NC(Sc1ccc(Cl)cc1)C(Cl)(Cl)Cl (stereo not drawn) | inactive: 1.54% |
| Oc1ccccc1CNc1ccccn1 | inactive: 1.88% |
| Cc1c2non([O-])c-2c(C)[n+](=O)[n+]1[O-] | inactive: 1.93% |
| CN1CCCC(OC(=O)C(c2ccccc2)c2ccccc2)C1 (stereo not drawn) | inactive: -1.05% |
| CC1CCN(C(=O)Oc2c(Cl)cc(Cl)c3cccnc23)CC1 | inactive: 4.8% |
| O=[N+]([O-])c1cccc2n[nH]nc12 | inactive: -4.77% |
| CC(=O)N1C2C3N(C(C)=O)C1C1N(C(C)=O)C(C(N1C(C)=O)N3C(C)=O)N2C(C)=O | inactive: -3.54% |
| CCc1nc2c(n1)c1c(non1O)c1c2no[n+]1[O-] | inactive: -4.29% |
| CCC(C)N(CC(C)C)C(=S)SC(NC(C)=O)C(Cl)(Cl)Cl (stereo not drawn) | inactive: -7.43% |

| SMILES | inhibition |
| --- | --- |
| O=C(COc1ccccc1)OC1CN2CCC1CC2 (stereo not drawn) | inactive: 9.82% |
| COP1(=S)c2c(C)nn(CCC#N)c2N=C(c2ccc(F)cc2)N1C (stereo not drawn) | inactive: 4.49% |
| O=C(OC1CN2CCC1CC2)C12CC3CC(CC(C3)C1)C2 (stereo not drawn) | inactive: 2.3% |
| CCN(CC)C(=S)SC(NC=O)C(Cl)(Cl)Cl (stereo not drawn) | inactive: -6.29% |
| ClCCSc1nnc(-c2cccnc2)o1 | inactive: -6.64% |
| O=[N+]([O-])c1ccc2c(c1)nnn2O | inactive: -2.76% |
| CCOP1(=S)c2c(C)nn(CCC#N)c2N=C(c2ccc(F)cc2)N1C (stereo not drawn) | inactive: 6.64% |
| CCOP1(=S)c2c(C)nn(CCC#N)c2N=C(c2ccccc2F)N1C (stereo not drawn) | inactive: -1.81% |
| Cc1cccc(OCC(=O)OC2CN3CCC2CC3)c1 (stereo not drawn) | inactive: -1.59% |
| CC1(CBr)Cn2c(nc3ccccc3c2=O)S1 (stereo not drawn) | inactive: -3.69% |
| Clc1n[nH]nc1-c1nn[nH][15n]1 | inactive: -3.39% |
| O=P1(Nc2ccccn2)COc2ccccc2OC1 | inactive: -5.24% |
| O=P1(Nc2ccc(Br)cn2)COc2ccccc2OC1 | inactive: -0.61% |
| Cc1ccc(OCC(=O)OC2CN3CCC2CC3)cc1 (stereo not drawn) | inactive: -5.77% |
| O=P1(Nc2ncccn2)COc2ccccc2OC1 | inactive: 1.45% |
| Cc1nn(-c2ccccc2)c2c1P(=O)(N1CCOCC1)N(C)C(c1ccccc1)=N2 (stereo not drawn) | inactive: -10% |

— PubChem BioAssay AID720 (The Scripps Research Institute Molecular Screening Center, 2007)
